Experimental data from publication PMC3642088, “Phosphorylation of CDK9 at Ser175 Enhances HIV Transcription and Is a Marker of Activated P-TEFb in CD4^+ T Lymphocytes” (PLoS Pathogens, 2013).

What was measured:
Conditions in all cases: partners not purified
FLAG-CDK9 S175A [1] = target: T1, FLAG-CDK9 S175A (human, S175A); test: co-IP; anti-FLAG IP of FLAG-CDK9 wildtype or mutants from latently infected Jurkat T-cells induced for 16 hr with TNF-α to express Tat, Western blot for BRD4, Tat and CycT1; levels normalised to total CDK9, three experiments
T1 construct: also called S175A CDK9; Ser175Ala

FLAG-CDK9 S175D [2] = target: T2, FLAG-CDK9 S175D (human, S175D); test: as above
T2 construct: also called S175D CDK9; Ser175Asp

FLAG-CDK9 T186A = target: T3, FLAG-CDK9 T186A (human, T186A); test: as above
T3 construct: also called T186A CDK9

FLAG-CDK9 T186D = target: T4, FLAG-CDK9 T186D (human, T186D); test: as above
T4 construct: also called T186D CDK9

FLAG-CDK9 S175A [3] = target: T1, FLAG-CDK9 S175A; test: co-IP; anti-FLAG M2 agarose IP of FLAG-CDK9 wildtype or mutants from whole cell extracts (lysis buffer A) of Jurkat 2D10 cells, FLAG peptide elution, Western blot; densitometry normalised to total immunoprecipitated CDK9, five experiments
FLAG-CDK9 S175D [4] = target: T2, FLAG-CDK9 S175D; test: as above

B1: Cyclin T1 (natural protein, human (endogenous in Jurkat), UniProt O60563 1-726, looked up)
chain: MEGERKNNNKRWYFTREQLENSPSRRFGVDPDKELSYRQQAANLLQDMGQRLNVSQLTINTAIVYMHRFYMIQSFTQFPGNSVAPAALFLAAKVEEQPKKLEHVIKVAHTCLHPQESLPDTRSEAYLQQVQDLVILESIILQTLGFELTIDHPHTHVVKCTQLVRASKDLAQTSYFMATNSLHLTTFSLQYTPPVVACVCIHLACKWSNWEIPVSTDGKHWWEYVDATVTLELLDELTHEFLQILEKTPNRLKRIWNWRACEAAKKTKADDRGTDEKTSEQTILNMISQSSSDTTIAGLMSMSTSTTSAVPSLPVSEESSSNLTSVEMLPGKRWLSSQPSFKLEPTQGHRTSENLALTGVDHSLPQDGSNAFISQKQNSKSVPSAKVSLKEYRAKHAEELAAQKRQLENMEANVKSQYAYAAQNLLSHHDSHSSVILKMPIEGSENPERPFLEKADKTALKMRIPVAGGDKAASSKPEEIKMRIKVHAAADKHNSVEDSVTKSREHKEKHKTHPSNHHHHHNHHSHKHSHSQLPVGTGNKRPGDPKHSSQTSNLAHKTYSLSSSFSSSSSTRKRGPSEETGGAVFDHPAKIAKSTKSSSLNFSFPSLPTMGQMPGHSSDTSGLSFSQPSCKTRVPHSKLDKGPTGANGHNTTQTIDYQDTVNMLHSLLSAQGVQPTQPTAFEFVRPYSDYLNPRSGGISSRSGNTDKPRPPPLPSEPPPPLPPLPK
notes: also called CycT1; hCycT1
Q: With B1 as the binder, how does the “percent of wildtype binding” value (FLAG-CDK9 S175A [1]) read?
A: The value was 98.9%.

Q: What about the “percent of wildtype binding” value (FLAG-CDK9 S175D [2]) of the same binder?
A: Its value is 78.9%.

Q: What about the “percent of wildtype binding” value (FLAG-CDK9 T186A) of the same binder?
A: The value was 8%.

Q: What about the “percent of wildtype binding” value (FLAG-CDK9 T186D) of the same binder?
A: The value was 49.4%.

Q: And the “percent co-immunoprecipitated against wildtype CDK9” value (FLAG-CDK9 S175A [3])?
A: The value was greater than 90%.

Q: What about the “percent co-immunoprecipitated against wildtype CDK9” value (FLAG-CDK9 S175D [4]) of the same binder?
A: Its value is 77.8%.
